Protein sequences, listed by entry. Tags and fused reporters are not part of them.
UniProt P25103, whole entry: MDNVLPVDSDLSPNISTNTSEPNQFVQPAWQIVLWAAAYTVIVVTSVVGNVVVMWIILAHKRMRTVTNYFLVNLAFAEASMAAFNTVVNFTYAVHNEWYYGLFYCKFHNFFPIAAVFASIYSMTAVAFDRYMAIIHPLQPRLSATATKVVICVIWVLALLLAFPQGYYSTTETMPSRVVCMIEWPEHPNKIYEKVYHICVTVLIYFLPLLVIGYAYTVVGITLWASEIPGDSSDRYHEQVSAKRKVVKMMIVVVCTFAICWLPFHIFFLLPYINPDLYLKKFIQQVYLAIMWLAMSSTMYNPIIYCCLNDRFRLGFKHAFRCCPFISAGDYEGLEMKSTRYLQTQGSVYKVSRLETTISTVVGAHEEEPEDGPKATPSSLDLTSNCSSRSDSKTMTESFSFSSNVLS

According to ChEMBL document CHEMBL1138982 (Bioorg Med Chem Lett, 2006):

Biological target: Substance-P receptor (Homo sapiens, UniProt P25103)
Assay: Displacement of [3H]-labeled substance P from cloned human NK1 receptor expressed in CHO cells
Assay type: cell-based

SMILES | Ki [nM]
Cc1ccccc1-c1cnc(N2CCN(C)CC2)nc1C(=O)N(C)Cc1cc(C(F)(F)F)cc(C(F)(F)F)c1 | 3.5
CC(C)(C(=O)Nc1ccccc1-c1ccccc1)c1cc(C(F)(F)F)cc(C(F)(F)F)c1 | 1380
